Results from patent publication US20200038399A1, “FORMULATIONS, METHODS, KIT, AND DOSAGE FORMS FOR TREATING BACTERIAL INFECTION” (Motif BioSciences Inc., priority 2016, published 2020).

Legend:
[1] = cited from earlier work
S. pneumoniae 1/1 = assay: checkerboard synergy assay with iclaprim; format: cell-based, Streptococcus pneumoniae; conditions: antibiotic in combination with iclaprim
[2] = system: Staphylococcus aureus ATCC 25923; assay: checkerboard synergy assay with iclaprim; conditions: antibiotic in combination with iclaprim; S. aureus 25923
[3] = system: Streptococcus pneumoniae ATCC 49619; assay: checkerboard synergy assay with iclaprim; conditions: antibiotic in combination with iclaprim; S. pneumoniae 49619
[4] = system: Haemophilus influenzae ATCC 49766; assay: checkerboard synergy assay with iclaprim; conditions: antibiotic in combination with iclaprim; H. influenzae 49766
S. aureus 101 = assay: checkerboard synergy assay with iclaprim; format: cell-based, Staphylococcus aureus; conditions: antibiotic in combination with iclaprim
[5] = system: Klebsiella pneumoniae ATCC 33495; assay: checkerboard synergy assay with iclaprim; format: cell-based; conditions: antibiotic in combination with iclaprim; K. pneumoniae 33495
[6] = system: Moraxella catarrhalis RA 21; assay: checkerboard synergy assay with iclaprim; conditions: antibiotic in combination with iclaprim; M. catarrhalis RA 21

For `COc1cc(Cc2cnc(N)nc2N)cc(OC)c1OC` [Trimethoprim], the pKa [1] is given as 7.3.
In the case of `Cc1cc(NS(=O)(=O)c2ccc(N)cc2)no1` [Sulfamethoxazole, N1-(5-methyl-3-isoxazolyl)sulfanilamide], the “Σ FIC” value (S. pneumoniae 1/1) is reported as 0.16-0.63, the “Σ FIC” value [2] is reported as 0.06-0.53 and the “Σ FIC” value [3] is reported as 0.05-0.52. For the same compound, the “Σ FIC” value [4] was 0.09-0.52, the “Σ FIC” value (S. aureus 101) was 0.19-0.63 and the “Σ FIC” value [5] was 0.51-1.50. For the same compound, the “Σ FIC” value [6] was 0.09-0.56.
For `CO[C@H]1/C=C/O[C@@]2(C)Oc3c(C)c(O)c4c(O)c(c(/C=N/N5CCN(C)CC5)c(O)c4c3C2=O)NC(=O)/C(C)=C\C=C\[C@H](C)[C@H](O)[C@@H](C)[C@@H](O)[C@@H](C)[C@H](OC(C)=O)[C@@H]1C` [Rifampicin], the “Σ FIC” value [2] was 0.54-1.25 and the “Σ FIC” value (S. aureus 101) was 0.75-1.25.
